Target: recombinant human CL receptor/RAMP1 (Homo sapiens (Human), UniProt O60894+Q16602)
Assay: Recombinant receptor binding assay (125I-hCGRP)
Details: exemplary compounds of the invention; 10 pM 125I-hCGRP, membranes of HEK 293 cells
Description: Human CL receptor (Genbank accession number L76380) was subcloned into the expression vector pIREShyg2 (BD Biosciences Clontech) as a 5′NheI and 3′ PmeI fragment. Human RAMP1 (Genbank accession number AJ001014) was subcloned into the expression vector pIRESpuro2 (BD Biosciences Clontech) as a 5′NheI and 3′NotI fragment. HEK 293 cells (human embryonic kidney cells; ATCC #CRL-1573) were cultured in DMEM with 4.5 g/L glucose, 1 mM sodium pyruvate and 2 mM glutamine supplemented with 10% fetal bovine serum (FBS), 100 units/mL penicillin and 100 µg/mL streptomycin, and maintained at 37° C. and 95% humidity. Cells were subcultured by treatment with 0.25% trypsin with 0.1% EDTA in HBSS. Stable cell line generation was accomplished by co-transfecting 10 μg of DNA with 30 μg Lipofectamine 2000 (Invitrogen) in 75 cm^2 flasks. CL receptor and RAMP1 expression constructs were co-transfected in equal amounts. […]
The cell suspension was disrupted with a laboratory homogenizer and centrifuged at 48,000 g to isolate membranes. […] Scintillation fluid was added and the plates were counted on a Topcount (Packard). Non-specific binding was determined and the data analysis was carried out with the apparent dissociation constant (Ki) determined by using a non-linear least squares fitting the bound CPM data to the equation below: […]

Protein sequences, listed by entry. Tags and fused reporters are not part of them. Residues count along the entry.
UniProt O60894, 27-148: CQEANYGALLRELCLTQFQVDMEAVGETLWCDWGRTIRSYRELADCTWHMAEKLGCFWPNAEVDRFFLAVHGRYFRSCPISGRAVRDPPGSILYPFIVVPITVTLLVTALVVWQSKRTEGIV
UniProt Q16602, 23-461: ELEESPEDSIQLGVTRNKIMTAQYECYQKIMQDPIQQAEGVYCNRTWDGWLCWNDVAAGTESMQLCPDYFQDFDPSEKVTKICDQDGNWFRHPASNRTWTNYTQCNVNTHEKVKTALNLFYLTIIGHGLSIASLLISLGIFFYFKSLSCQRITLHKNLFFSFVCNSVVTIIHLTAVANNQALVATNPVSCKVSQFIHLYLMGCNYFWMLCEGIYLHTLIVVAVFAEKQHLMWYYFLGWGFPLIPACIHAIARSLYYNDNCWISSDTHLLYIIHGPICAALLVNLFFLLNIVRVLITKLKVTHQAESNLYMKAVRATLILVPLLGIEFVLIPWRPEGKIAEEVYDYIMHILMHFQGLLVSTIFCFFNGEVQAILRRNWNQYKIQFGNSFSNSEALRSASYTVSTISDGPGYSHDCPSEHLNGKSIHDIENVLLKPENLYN

- Ki: 0.093 nM
SMILES: C[C@@H]1[C@H](c2ccccc2)C[C@H](NC(=O)c2cnc3c(c2)C[C@@]2(C3)C(=O)Nc3ncccc32)C(=O)N1CC1(C(F)(F)F)CC1 [Example 26]
